Chains of the proteins cited; added tags and fusions are not shown. A line that says so, or that is headed by a name, gives the form on record, which may keep a tag or linker. Residues count along the entry.
glucose-6-phosphate glycated human hemoglobin (Hb-AGE), P69905, UniProt P69905, 2-142, chain 1 of 2: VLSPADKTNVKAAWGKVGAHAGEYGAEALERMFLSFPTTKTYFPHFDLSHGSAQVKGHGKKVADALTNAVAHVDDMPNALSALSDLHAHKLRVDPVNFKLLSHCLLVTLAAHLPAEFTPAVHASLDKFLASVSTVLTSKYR
glucose-6-phosphate glycated human hemoglobin (Hb-AGE), P69905, one chain, as listed by the source, chain 2 of 2: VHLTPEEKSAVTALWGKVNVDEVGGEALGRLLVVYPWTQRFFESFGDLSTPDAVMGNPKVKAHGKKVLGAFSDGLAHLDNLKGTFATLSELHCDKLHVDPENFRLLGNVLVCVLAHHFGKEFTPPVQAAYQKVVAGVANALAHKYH

According to patent US20090202980:

Molecular target: glucose-6-phosphate glycated human hemoglobin (Hb-AGE), P69905

B1: human factor XII (Hageman factor) (protein)
chain: IPPWEAPKEHKYKAEEHTVVLTVTGEPCHFPFQYHRQLYHKCTHKGRPGPQPWCATTPNFDQDQRWGYCLEPKKVKDHCSKHSPCQKGGTCVNMPSGPHCLCPQHLTGNHCQKEKCFEPQLLRFFHKNEIWYRTEQAAVARCQCKGPDAHCQRLASQACRTNPCLHGGRCLEVEGHRLCHCPVGYTGAFCDVDTKASCYDGRGLSYRGLARTTLSGAPCQPWASEATYRNVTAEQARNWGLGGHAFCRNPDNDIRPWCFVLNRDRLSWEYCDLAQCQTPTQAAPPTPVSPRLHVPLMPAQPAPPKPQPTTRTPPQSQTPGALPAKREQPPSLTRNGPLSCGQRLRKSLSSMTRVVGGLVALRGAHPYIAALYWGHSFCAGSLIAPCWVLTAAHCLQDRPAPEDLTVVLGQERRNHSCEPCQTLAVRSYRLHEAFSPVSYQHDLALLRLQEDADGSCALLSPYVQPVCLPSGAARPSETTLCQVAGWGHQFEGAEEYASFLQEAQVPFLSLERCSAPDVHGSSILPGMLCAGFLEGGTDACQGDSGGPLVCEDQAAERRLTLQGIISWGSGCGDRNKPGVYTDVAYYLAWIREHTVS
For B1, which “auto-activation of factor XII (S-2222 conversion)” value is on record?
Its value is “FP13 K157G and Hb-AGE have a potency to induce auto-activation that is similar to the established surface activator DXS500k”.
